Laboratory results as given in US7615560B2, “Thienopyrimidines as cooling agents” (Conopco, Inc., priority 2004, dated 2009).

Sequences of proteins named here, by UniProt entry; tags and fusion partners are left off.
UniProt Q7Z2W7, whole entry: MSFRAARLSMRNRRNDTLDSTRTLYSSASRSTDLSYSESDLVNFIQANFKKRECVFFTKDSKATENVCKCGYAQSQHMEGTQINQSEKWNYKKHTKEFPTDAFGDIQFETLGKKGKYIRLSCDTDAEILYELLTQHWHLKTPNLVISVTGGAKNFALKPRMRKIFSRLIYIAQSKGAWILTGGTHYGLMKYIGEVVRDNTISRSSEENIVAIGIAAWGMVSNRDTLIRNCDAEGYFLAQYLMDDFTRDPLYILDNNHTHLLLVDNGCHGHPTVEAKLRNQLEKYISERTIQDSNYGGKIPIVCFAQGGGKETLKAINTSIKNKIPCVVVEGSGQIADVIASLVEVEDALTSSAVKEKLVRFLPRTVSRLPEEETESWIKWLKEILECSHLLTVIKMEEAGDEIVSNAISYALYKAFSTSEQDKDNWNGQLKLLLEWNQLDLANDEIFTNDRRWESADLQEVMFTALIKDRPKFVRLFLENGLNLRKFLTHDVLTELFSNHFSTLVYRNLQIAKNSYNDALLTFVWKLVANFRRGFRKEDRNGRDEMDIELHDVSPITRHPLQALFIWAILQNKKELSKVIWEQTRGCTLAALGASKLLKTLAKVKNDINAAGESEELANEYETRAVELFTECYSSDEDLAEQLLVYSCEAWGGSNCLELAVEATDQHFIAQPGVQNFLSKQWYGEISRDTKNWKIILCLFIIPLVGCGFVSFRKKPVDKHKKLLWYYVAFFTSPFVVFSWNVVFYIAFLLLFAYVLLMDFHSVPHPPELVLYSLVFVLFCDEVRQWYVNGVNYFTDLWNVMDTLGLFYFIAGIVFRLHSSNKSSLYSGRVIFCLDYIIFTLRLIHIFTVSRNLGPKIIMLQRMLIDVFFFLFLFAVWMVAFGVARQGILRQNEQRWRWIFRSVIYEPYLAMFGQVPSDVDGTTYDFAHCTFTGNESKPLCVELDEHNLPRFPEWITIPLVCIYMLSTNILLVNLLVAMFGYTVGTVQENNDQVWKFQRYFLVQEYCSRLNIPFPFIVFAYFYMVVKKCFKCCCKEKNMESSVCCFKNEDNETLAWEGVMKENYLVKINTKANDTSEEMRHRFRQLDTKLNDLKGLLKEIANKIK

These compounds were tested against human TRPM8 channel (Homo sapiens, UniProt Q7Z2W7) (assay: Intracellular calcium (fluo-4 fluorescence) assay in HEK 293 cells stably expressing human TRPM8). Conditions: fluo-4 calcium fluorescence, table of Examples 2-12.
Description: Humans can detect changes in temperature from noxious cold (<8 C) to noxious heat (>52 C) due to activation of sensory nerve fibers. “The principal temperature sensors in the sensory nerve fibers are members of a family of transient receptor potential (TRP) cation channels” (Voets et al., 2004). In humans the sensation of cooling is elicited by activation of channel TRPM8, which is activated at temperatures below 28 C (Voets et al., 2004). Furthermore human TRPM8 is activated by compounds such as menthol (Brauchi et al., Proc. Natl. Acad. Sci. USA, 2004, Oct. 26; 101 (43):15494-9; Voets et al., Nature, 2004, 430 (7001): 748-54). A heterologous expression system, in which HEK cells stably expressing the human TRPM8 channel, was used to set up a screening system in order to search for compounds that elicit a cooling sensation.
The open reading frame of human cDNA TRPM8 from position 41-3355bp was amplified from a human prostate cDNA library (Stratagene) using primers […] and […] as previously described previously (Tsavalier et al., 2001).
HEK 293 cells were transfected with human TRPM8 cDNA that was cloned into a pcDNA4 vector, using a standard calcium phosphate method (Wigler et al., 1977). The transfected cells were placed under selective pressure by growth in 100 μg/mL zeocin (Invitrogen) and cells stably expressing the human TRPM8 were generated.
Cells stably expressing the human TRPM8 were seeded in a 96 well plate (coated with polylysine) at a density of 10^5 cells /well in 200 μl of media. The next day the cell medium was removed and the cells were incubated a DMEM solution (supplemented with 0.001% BSA w/w, 0.01% FCS v/v, 0.02% plurinoc acid, 1 mM probenicide) that contained the calcium sensitive fluorescent dye fluo-4 (˜3 μM, Molecular Probes) at 37° C. for 1 hr. The dye was then removed and the cells were incubated in a Tyrodes buffer (containing 1 mM probenicide, pH 7.4) pre-equilibrated at a certain temperature (i.e 37° C.) and the intracellular calcium levels were monitored at the same temperature, using the Novostar plate reader. The cells in each well were illuminated at 480 nm, and the fluorescent light emitted at 510 nm was measured. The fluorescence was determined before (basal fluorescence) and after the addition of increasing concentrations of a test compound. The maximal increase in fluorescence (DFmax) caused by a compound, was measured as the peak fluorescence induced by that compound minus the basal fluorescence. The potency of a compound is expressed as the EC50 and it is the concentration of the compound that produces one-half of the maximal response (DFmax).

EC50 [µM]	Compound
25	CCCCn1cnc2sc3c(c2c1=N)CCCCC3
85	N=c1c2c3c(sc2ncn1CCCn1ccnc1)CCCC3
30	N=c1c2c3c(sc2ncn1Cc1ccccc1)CCCC3
55	N=c1c2c3c(sc2nc2n1CCC2)CCCC3
70	CC(C)Cn1cnc2sc3c(c2c1=N)CCCCC3
